# Reported properties for industrial, environmental and drug-like chemicals

From the experimental data distributed with OPERA 2.9.

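These are experimental values that the OPERA curators gathered from public databases to train and test their QSAR models. The files give a single number for a compound and property, which may rest on several reports. Conditions of the individual experiments are not part of the data. A value may pool stereoisomers or salt forms, and the file does not say which form was measured. Unmarked limits or estimates from the upstream databases cannot be ruled out.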

Melting points are in °C. Boiling points are in °C, nominally at 760 mmHg. The octanol-water partition coefficient is given as log10; larger values mean a more lipophilic compound. Water solubility is log10 of mol/L, nominally at 25 °C; higher is more soluble. Vapor pressures (log10 mmHg) refer to near room temperature, 15 to 30 °C; higher is more volatile. The Henry's law constant is on a log10 scale in atm·m3/mol (set defined at 25 °C); higher favours air over water. fu is the fraction unbound in human plasma, from 0 to 1. Intrinsic clearance (human, µL/min per 10^6 hepatocytes): higher is faster turnover, and 0 stands for none detected.

- CCOc1ccc2c(c1)C(C)=CC(C)(C)N2 [Ethoxyquin]: log Kow 3.19; log solubility -3.561 (log10 mol/L); log Henry constant -6.359 (log10 atm·m3/mol); intrinsic clearance 15.16 µL/min/10^6 cells
- CC(=O)OC[C@@H]1O[C@H](n2cc(C)c(=O)[nH]c2=O)C[C@H]1OC(C)=O: MP 125 °C; log Kow 1; log vapor pressure -9.799 (log10 mmHg)
- N[C@@H](Cc1cc(I)c(Oc2ccc(O)cc2)c(I)c1)C(=O)O [3,5-Diiodo-L-thyronine]: log Kow 1.1; log solubility -4.416 (log10 mol/L)
- CC(=O)OCCN(CCOC(C)=O)c1ccc(/N=N/c2ccc([N+](=O)[O-])cc2C#N)cc1 [Disperse Red 82]: MP 140.8 °C; log Kow 3.7; log solubility -7.3 (log10 mol/L)
- CC1CC(CC2CC(C)C(N)C(C)C2)CC(C)C1N (centres undefined) [4,4'-Methylenebis(2,6-dimethylcyclohexan-1-amine)]: bp 353.7 °C; log Kow 3.05; log solubility -2.633 (log10 mol/L); log vapor pressure -4.763 (log10 mmHg); log Henry constant -8.01 (log10 atm·m3/mol)
- Nc1nc(=O)c2c([nH]1)NC[C@@H](CNc1ccc(C(=O)N[C@@H](CCC(=O)O)C(=O)O)cc1)N2 [Tetrahydrofolic acid]: MP 215.5 °C; log Kow -2.7; log solubility -3.219 (log10 mol/L)
- COc1ccc(N=Nc2c(O)ccc3ccccc23)c([N+](=O)[O-])c1 [1-((4-Methoxy-2-nitrophenyl)azo)-2-naphthol]: MP 206 °C; log Kow 4.33; log solubility -7.991 (log10 mol/L)
- CC1(C)CC(=O)CC(C)(C#N)C1 (centres undefined) [5-Oxo-1,3,3-trimethylcyclohexanecarbonitrile]: MP 67.55 °C; bp 279.9 °C; log Kow 1.7; log solubility -1.534 (log10 mol/L); log vapor pressure -2.921 (log10 mmHg)
- NS(=O)(=O)c1ccccc1C(F)(F)F [2-(Trifluoromethyl)benzenesulfonamide]: log Kow 0.96; log solubility -2.79 (log10 mol/L); log vapor pressure -7.347 (log10 mmHg)
- CC(=O)[C@H]1CC[C@H]2[C@@H]3C[C@H](C)C4=CC(=O)CC[C@]4(C)[C@H]3[C@@H](O)C[C@]12C [Medrysone]: log Kow 3.2; log solubility -4.01 (log10 mol/L)
- C[Si](NC1CCCCC1)(NC1CCCCC1)NC1CCCCC1 [N,N',N''-Tricyclohexyl-1-methylsilanetriamine]: MP -23.98 °C; bp 315 °C; log vapor pressure -2.846 (log10 mmHg)
- CCCCC(CC)COS(=O)(=O)[O-].[Na+] (centres undefined) [Sodium ethasulfate]: MP 181 °C; log Kow -0.248
- CC1(C)COCN1 [4,4-Dimethyl oxazolidine]: MP -67.8 °C; log solubility 0.694 (log10 mol/L)
- CCCCCC(CO)CCC (centres undefined) [2-Propyl-1-heptanol]: MP -108.3 °C; log Kow 4.17; log solubility -3.361 (log10 mol/L); log vapor pressure -1.763 (log10 mmHg)
- O=[N+]([O-])c1ccc(CCc2ccc([N+](=O)[O-])cc2)cc1 [Benzene, 1,1'-(1,2-ethanediyl)bis[4-nitro-]: log Kow 2.8; log solubility -4.59 (log10 mol/L)
- CCCCCCCCCCCC(=O)OC [Methyl dodecanoate]: log solubility -4.69 (log10 mol/L); plasma fu 0.03637
- Nc1ccc(S(=O)(=O)CCOS(=O)(=O)O)cc1: MP 272.5 °C; log solubility -1.905 (log10 mol/L)
- Cc1[nH]c(N)nc(=O)c1CCO [2-Amino-5-(2-hydroxyethyl)-6-methylpyrimidin-4(1H)-one]: MP 273.4 °C; log Kow -1.01; log solubility -2.03 (log10 mol/L)
- CCC(C)C(=O)N(C)c1ccccc1 (centres undefined) [Butanamide, N,2-dimethyl-N-phenyl-]: MP 36 °C; log Kow 2.55; log vapor pressure -2.381 (log10 mmHg)
- Cc1cc(/N=N/c2c(O)ccc3ccccc23)c(S(=O)(=O)[O-])cc1Cl.Cc1cc(/N=N/c2c(O)ccc3ccccc23)c(S(=O)(=O)[O-])cc1Cl.[Sr+2]: log Kow 2.006; log solubility -7.623 (log10 mol/L)
- O=C(O)CC(C(=O)O)C(O)C(=O)O (centres undefined) [3-Carboxy-2,3-dideoxypentaric acid]: MP 163.5 °C; log solubility 0.385 (log10 mol/L)
- C=CCc1ccc(O)c(OC)c1 [Eugenol]: plasma fu 0.1922; intrinsic clearance 103.6 µL/min/10^6 cells
- CCN(CC)c1ccc(C(=O)c2ccccc2C(=O)O)c(O)c1 [2-[4-(diethylamino)-2-hydroxybenzoyl]benzoic acid]: plasma fu 0.00517; intrinsic clearance 2 µL/min/10^6 cells
- CC1=CC=C(C(C)C)CC1 [alpha-Terpinene]: log solubility -4.36 (log10 mol/L); log vapor pressure -0.098 (log10 mmHg)
- CO[Si](CCCN=C=O)(OC)OC [Silane, (3-isocyanatopropyl)trimethoxy-]: log solubility -3.257 (log10 mol/L); log vapor pressure -1.274 (log10 mmHg)
- C=CC(F)(F)C(F)(F)C(F)(F)C(F)(F)C(F)(F)C(F)(F)C=C [1,6-Divinylperfluorohexane]: MP -34.85 °C; log solubility -5.342 (log10 mol/L); log vapor pressure 0.937 (log10 mmHg)
- CC(C)OC(=O)[C@H](C)OC(=O)C(C)(C)C [(S)-1-Isopropoxy-1-oxo-2-propanyl pivalate]: bp 207.5 °C; log Kow 3.32; log solubility -2.643 (log10 mol/L); log vapor pressure -0.497 (log10 mmHg)

Extract of 2 entries:

{"smiles": "CC1(C)CC(=O)CC(C)(C#N)C1", "stereo": "centres undefined", "name": "5-Oxo-1,3,3-trimethylcyclohexanecarbonitrile", "MP (°C)": "67.55", "bp (°C)": "279.9", "log Kow": "1.7", "log solubility (log10 mol/L)": "-1.534", "log vapor pressure (log10 mmHg)": "-2.921"}
{"smiles": "CC(C)OC(=O)[C@H](C)OC(=O)C(C)(C)C", "name": "(S)-1-Isopropoxy-1-oxo-2-propanyl pivalate", "bp (°C)": "207.5", "log Kow": "3.32", "log solubility (log10 mol/L)": "-2.643", "log vapor pressure (log10 mmHg)": "-0.497"}